The numbers were not newly measured in US20240041819A1, “SYSTEMS AND METHODS FOR ENHANCED FINE PARTICULATE DELIVERY IN FEED FOR ANIMALS” (SarTec Corporation, priority 2018, published 2024), which cites them from elsewhere.

The conditions of the series: in water, pH 7.

The term solubility denotes the dissolved amount per volume that the medium holds. monensin sodium: the solubility is 4.8 µg/mL.
